The values below come from paper PMC11794875, “Molecular basis for azetidine-2-carboxylic acid biosynthesis” (Nature Communications, 2025).

A word on the Km: it is the concentration of substrate that gives half-maximal velocity. As usually defined, the kcat is the maximal rate divided by the concentration of active sites.

In this data set the test system is C[S+](CC[C@H](N)C(=O)O)C[C@H]1O[C@@H](n2cnc3c(N)ncnc32)[C@H](O)[C@@H]1O. Kind of data set: purified protein. To be noted: 100 mM Tris-HCl, pH 8.0, 30 °C, apparent, substrate inhibition not considered.

AzeJ (Pseudomonas aeruginosa PAO1): the Km was determined as 560 ± 210 µM and the kcat stood at 0.288 ± 0.0333 s⁻¹.
